Ab-14 heavy chain CDR variants: yeast mating affinities

Source: Li et al. 2023 (doi:10.1038/s41467-023-39022-2), MIT Lincoln Laboratory and A-Alpha Bio; data file from the FLAb repository.

The target is the same throughout: PDVDLGDISGINAS, from the HR2 region of SARS-CoV-2 spike.

Parent: Ab-14, a human scFv built as VH, three GGGGS repeats, VL. Only the CDRs of the heavy chain vary.
VH: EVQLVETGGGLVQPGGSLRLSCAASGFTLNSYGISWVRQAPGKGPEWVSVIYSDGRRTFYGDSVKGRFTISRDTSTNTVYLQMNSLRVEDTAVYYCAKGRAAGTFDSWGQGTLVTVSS
VL: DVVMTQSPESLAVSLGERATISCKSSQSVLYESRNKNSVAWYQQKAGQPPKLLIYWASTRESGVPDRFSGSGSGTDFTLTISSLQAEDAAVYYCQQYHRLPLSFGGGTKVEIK

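The starting antibody came from a phage panning campaign against this peptide. Designed CDR sequences, proposed from the first random library and measured here. Several design methods are mixed in this list. Affinity was read by AlphaSeq, a pooled yeast mating assay with surface-displayed partners. The frequency of each diploid, read from paired DNA barcodes, reflects how well the two displayed proteins bind. Each replicate has its own calibration line, from reference interactions of the BCL2 family. The assay was run in six technical replicates.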

Variants are written as CDR1, CDR2 and CDR3 of the heavy chain (limits as in the source). Parent: GFTLNSYGIS, VIYSDGRRTFYGDSVK, GRAAGTFDS.
Each Kd is an estimate from the mating assay, the geometric mean of the replicates in which the pair was seen; lower is stronger.
Where no diploid with the target was found in any replicate, the entry reads "no signal": below detection, most likely a poor binder, though not proof of it.
Values of this round are not directly comparable with the first-round values of the same sequences.
As a blank, each scFv also met three strains without target: over all heavy chain designs, 1% of these pairings were detected, typically at 120 nM and seldom below 7.0 nM.
The authors averaged sequences with at least three values out of six and counted those with two or fewer as poor binders.

CDR-H1 | CDR-H2 | CDR-H3 | apparent Kd | replicates with signal
GFNLDEYGIS | VIYADGRRTFYADSVK | GQVAGTFLM | 420 pM | 6/6
GFTQNDYGIS | VIYSDGRRTQYIQSVK | GRAAGTFDS | no signal | 0/6
GFDLNEYGIS | VIYADGQRTAYADSVK | GTNAGTFDI | 1.7 nM | 6/6
GFTTNDYGIS | VIYSDGRRTKYIDSVK | GRAAGEFDS | 26 nM | 1/6
GFWLNDYGIS | VIYSDGRRTFYADSVK | GRAAGTFDT | 29 nM | 6/6
GFELNSYGIS | VIYSDGRRTFYDDSVK | GQAAGTFDS | 18 nM | 6/6
GFNLDEMGIS | VIYADGSRQVYADSVK | GHFGGNKIN | no signal | 0/6
GFTLNSYGGS | VIYADGIRTFYGDSVK | GRAAGTFDS | 30 nM | 1/6
GFTLNEYGIS | VIYSDGQRTFYSDSVK | GRAAGTFDS | 1.6 nM | 6/6
GFHLNEYGIS | VIYSDGRRTFYGDSVK | GQTAGTFDS | 27 nM | 6/6
GFTLNEYGIS | VIYSDGRRTFYDDSVK | GRAAGTFIS | no signal | 0/6
GFDLNEYGIS | VIYADGRRTFYSDSVK | GHTAGTFIQ | 1.4 nM | 6/6
GFDLDEYGIS | VIYADGVRTAYTDSVK | GENAGTFDL | 580 pM | 6/6
GFCLNEYGIS | VIYSDGRRTFYGDSVK | GRAAGTFDL | 1.2 nM | 1/6
KFQLNDYGIS | VIYSDGRRTFYADSVK | GRTAGTFDS | no signal | 0/6
GFVLNNYGIS | VIYSDGRRTFYGDSVK | GRTAGTFDS | 1.3 nM | 4/6
GFTLNEYGIS | VIYSDGVRTFYSDSVK | GRAAGTFDS | 970 pM | 6/6
GFSLNNYGIS | VIYSDGRRTFYGDSVK | GKAAGTFDS | 11 nM | 6/6
GFSLNSYGIS | VIYSDGRRTFYGDSVK | GRAAGHFTS | no signal | 0/6
GFDLNEYGIS | VIYADGVRTAYADSVK | GGNAGTFDT | 23 pM | 6/6
GFDLDEYGIS | VIYADGMRTAYADDVK | GETAGTFDT | 300 pM | 6/6
GFTLNQYGIS | VIYSDGRRTFYSDSVK | GQAAGTFDK | 2.2 nM | 6/6
GFTLNEYGIS | VIYSDGRRTFYTDSVK | GRAAGTFIS | 59 nM | 1/6
GFELNMYGIS | VIYSDGRRTFYGDSVK | GQAAGTFDS | 19 nM | 6/6
GFGLNEYGIS | VIYSDGRRTFYGDSVK | GKAAGTFDT | 3.1 nM | 6/6

The remaining entries, values ahead:

apparent Kd | replicates with signal | CDR-H1 | CDR-H2 | CDR-H3
51 nM | 5/6 | GFTLNSYGIS | VIYSDGRRKFYIDSVK | GRAAGTFDS
1.1 µM | 1/6 | GFNLSEYGIS | VIYADGKKTQYSNAVK | GANGGIFNV
7.6 nM | 6/6 | GFDLNEYGIS | VIYADGRRTFYADSVK | GEAAGTFNT
410 pM | 6/6 | GFSLNSYGIS | VIYSDGRRTFYGDSVK | GVEAGTFDT
580 pM | 6/6 | GFDLNEYGIS | VIYADGVRTFYKDSVK | GEAAGTFDQ
no signal | 0/6 | GFTLNSYGIS | VIYSDGRRTFYGDSVK | GRMAGTNEL
2.9 nM | 6/6 | GFDLEDYGIS | VIYADGRRTQYADSVK | GEVAGTFDL
1.5 nM | 6/6 | GFDLESYGIS | VIYADGSRTAYADSVK | GNVAGTFDS
900 pM | 6/6 | GFDLNEYGIS | VIYADGQRTAYSDSVK | GNNAGTFDI
7.2 nM | 4/6 | GFNLNSYGIS | VIYSDGRRTFYMDSVK | GQLAGTFDS
1.7 nM | 6/6 | GFSLNDYGIS | VIYSDGRRTFYGDAVK | GKTAGTFDS
no signal | 0/6 | GFNLDEYGIS | VIYADGTRRYYADSVK | GDYVVVNSI
no signal | 0/6 | GFDLEEYGIS | VIYADGRRKQYTDAVK | GKFLVMMDM
no signal | 0/6 | PFDLNSYGIS | VIYSDGRRTFYADSVK | GRQAGTFDS
no signal | 0/6 | GFTLNSYGIH | VIYSDGRRVFYGDSVK | GRAHGTFDS
490 nM | 1/6 | GENINEYGIS | VIYADGRRTAYAEDVK | GQSGGTIDV
480 pM | 6/6 | GFDLNEYGIS | VIYADGMRTAYSDKVK | GENAGTFDL
680 pM | 6/6 | GFSLNEYGIS | VIYSDGRRTFYDDSVK | GRTAGTFDS
1.1 nM | 6/6 | GFELNSYGIS | VIYSDGRRTFYADSVK | GRTAGTFDQ
8.6 nM | 6/6 | GFNLNSYGIS | VIYSDGRRTFYGDDVK | GEAAGTFDS
6.1 nM | 6/6 | GFSLNDYGIS | VIYSDGRRTFYGDSVK | GRAAGTFSS
190 nM | 2/6 | PFDLNSYGIS | VIYSDGRRTFYQDSVK | GQAAGTFDS
no signal | 0/6 | GFNLDEYGIS | VIYADGRRTGYQDKFK | GANNFSVLM
1.1 µM | 1/6 | GVTINSYGIS | VIYEDGRRQFYGDSVK | GQATGTFDS
380 pM | 6/6 | GFDLNDYGIS | VIYADGRRTAYIDSVK | GEVAGTFDD
25 nM | 6/6 | GFNLNEYGIS | VMYADGSRRVYQDKVK | GFQSGTFDT

Excerpt, the first 5 entries:

CDR-H1 | CDR-H2 | CDR-H3 | apparent Kd | replicates with signal
GFNLDEYGIS | VIYADGRRTFYADSVK | GQVAGTFLM | 420 pM | 6/6
GFTQNDYGIS | VIYSDGRRTQYIQSVK | GRAAGTFDS | no signal | 0/6
GFDLNEYGIS | VIYADGQRTAYADSVK | GTNAGTFDI | 1.7 nM | 6/6
GFTTNDYGIS | VIYSDGRRTKYIDSVK | GRAAGEFDS | 26 nM | 1/6
GFWLNDYGIS | VIYSDGRRTFYADSVK | GRAAGTFDT | 29 nM | 6/6